Amino acid sequences for entries named in this document (tags omitted).
UniProt Q00535, whole entry: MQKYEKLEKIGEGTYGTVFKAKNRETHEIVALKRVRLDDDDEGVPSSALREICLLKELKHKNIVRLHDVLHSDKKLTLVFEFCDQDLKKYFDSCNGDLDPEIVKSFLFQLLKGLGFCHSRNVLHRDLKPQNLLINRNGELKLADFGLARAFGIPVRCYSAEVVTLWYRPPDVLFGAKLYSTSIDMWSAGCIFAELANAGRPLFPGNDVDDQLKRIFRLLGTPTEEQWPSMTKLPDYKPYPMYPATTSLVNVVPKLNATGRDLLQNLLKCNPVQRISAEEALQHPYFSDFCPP

According to article PMC6273584, “Synthesis of Thiazolo[5,4-f]quinazolin-9(8H)-ones as Multi-Target Directed Ligands of Ser/Thr Kinases” (Molecules, 2016):

How the values were obtained:
[1] = target: GSK-3α/β; assay: In vitro kinase assay GSK-3α/β, GS-1 peptide substrate; format: biochemical, Porcine; conditions: 15 μM ATP, 30 min, 30 °C, triplicate; <50% inhibition at 10 μM = IC50 >10 μM
[2] = target: T1, CDK5/p25 (Homo sapiens, UniProt Q00535); assay: In vitro kinase assay CDK5/p25, [γ-33P]ATP, histone H1 substrate; format: biochemical
T1 construct: made in house

SMILES | IC50 [1] [µM] | IC50 [2] [µM]
CCOC(=N)c1nc2ccc3ncn(C(C)C)c(=O)c3c2s1 [Compound 14d, Ethyl 8-isopropyl-9-oxo-8,9-dihydrothiazolo[5,4-f]quinazoline-2-carboximidoate] | 0.17 | –
COc1ccc2c(c1)[nH]c1c(C)nccc12 [Harmine, reference compound] | – | > 10
